Columns and labels:
[1] = target: recombinant human HMGB1 (Homo sapiens, UniProt P09429); test: Affinity pulldown from mouse plasma spiked with r-HMGB1, HMGB1 immunoblot; conditions: mouse plasma with 30 μg/ml r-HMGB1, streptavidin-agarose beads
Protocol: Referring to FIG. 10, streptavidin-agarose beads (Sigma-Aldrich, St. Louis, MO) were blocked with 5% BSA in PBS at 4 °C overnight. Biotinylated HMGB1-BP or biotinylated scrambled HMGB1-BP (Biomatik, Wilmington, DE) was incubated with mouse plasma supplemented with 30 μg/ml recombinant human HMGB1 (GenScript, Piscataway, NJ) at 4 °C overnight. The Streptavidin-agarose beads were added to the mixture and incubated at 4 °C for 2 h. The beads were centrifuged to pellet the beads, washed with PBS 3 times, and boiled in Laemmli Sample Buffer (Bio-Rad, Hercules, CA). The proteins in the pulldown were immunoblotted for r-HMGB1 using an anti-HMGB1 antibody (Abcam, Waltham, MA) using established protocols.

Chains of the proteins cited; added tags and fusions are not shown.
UniProt P09429, whole entry: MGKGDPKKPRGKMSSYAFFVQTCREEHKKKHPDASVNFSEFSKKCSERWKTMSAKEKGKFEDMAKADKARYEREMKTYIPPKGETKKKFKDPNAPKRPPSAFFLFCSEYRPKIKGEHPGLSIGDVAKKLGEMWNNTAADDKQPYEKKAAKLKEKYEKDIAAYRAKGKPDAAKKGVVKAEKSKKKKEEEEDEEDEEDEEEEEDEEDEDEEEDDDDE

[2] = test system: eNOS-dependent vasodilation, facialis arteries; test: eNOS-dependent vasodilation (area between curves ± L-NAME) of facialis arteries from treated SS mice; conditions: SS mice, 3 weeks; KYC 3 mg/kg/d or N6022 1 mg/kg/d in PBS with 1% DMSO; ± L-NAME 100 μM
Protocol: (§1) Effects of hE-HMGB1-BP on vasodilation, eNOS-dependent vasodilation, and plasma HMGB1. Townes SS mice were treated daily with hE-HMGB1-BP (Biomatik Corp., Kitchener, Ontario; 2.72 mg/kg/d, subcutaneous injection) for three weeks. On the day of the vasodilation studies, mice were anesthetized with isoflurane (1-3%), subjected to thoracotomy, and euthanized by exsanguination. A hypodermic needle was inserted into the heart's right side, and blood was drawn into EDTA. Plasma was separated by centrifugation. The plasma was divided into aliquots and stored at −80 °C until analysis for HMGB1 using ELISA kits from Tecan (30164033, Männedorf, Switzerland) as described. Facialis arteries were isolated by microdissection, cannulated, and pressurized to 60 mmHg. Changes in vasodilation of (5Z)-7-[(1R,4S,5S,6R)-6-[(1E,3S)-3-hydroxy-1-octenyl]-2-oxabicyclo[2.2.1]hept-5-yl]-5-heptenoic acid (U46619)-preconstricted, pressurized facialis arteries were determined by video microscopy in response to acetylcholine (Ach) (10-7-10-4 M) as before. After determining vasodilation in the absence of N(G)-nitro-L-arginine methyl ester (L-NAME), the bath's MOPS physiological buffer [CaC12 2H2O (2.0 mM), EDTA (0.02 mM), glucose (5.0 mM), KCl (4.7 mM), MgSO4·7H2O (1.17 mM), MOPS (3.0 mM), NaCl (145 mM), NaH2PO4OH2O (1.2 mM), pyruvic acid (2.0 mM)] was replaced with 37 °C MOPS physiological buffer containing L-NAME (100 μM) and Ach-induced relaxation responses determined once again, as above. eNOS-dependent vasodilation was determined from the area between curves (ABC). The area between vasodilation curves in the absence and presence of L-NAME was calculated using the area under the curve function in Prism GraphPad 9.5.0 after correction of paired data for negative relaxation responses. […]
(§2) Effects of inhibiting GSNOR on vasodilation in SS mice. […] Relaxation responses to Ach (10-7 to 10 4 M) were determined in MOPS physiological buffer in the absence and presence of L-NAME by video microscopy as described. […]

[3] = test system: facialis arteries; test: Endothelial-dependent (ACh-induced) vasodilation of isolated facialis arteries from treated SS mice; conditions: N6022 1 mg/kg/d, subcutaneous, 3 weeks, 1% DMSO; p<0.001
Protocol: as §1, §2

| Compound | affinity for r-HMGB1 in plasma pulldown [1] | eNOS-dependent vasodilation (in words) [2] | endothelial- and eNOS-dependent vasodilation (in words) [3] |
| --- | --- | --- | --- |
| CC[C@H](C)[C@H](NC(=O)CNC(=O)[C@H](CCCCN)NC(=O)[C@@H](NC(=O)[C@H](CC(=O)O)NC(=O)[C@H](Cc1ccccc1)NC(=O)[C@H](CC(N)=O)NC(=O)[C@H](CC(N)=O)NC(=O)[C@H](C)NC(=O)[C@H](CO)NC(=O)[C@H](Cc1c[nH]cn1)NC(=O)[C@H](C)NC(=O)CCCCCNC(=O)CCCC[C@@H]1SC[C@@H]2NC(=O)N[C@@H]21)C(C)C)C(N)=O | high specific affinity for r-HMGB1 | – | – |
| Cc1cc(C(N)=O)ccc1-n1c(CCC(=O)O)ccc1-c1ccc(-n2ccnc2)cc1 | – | improved eNOS-dependent vasodilation | markedly increased endothelial- and eNOS-dependent vasodilation |
